Test results from ChEMBL document CHEMBL4261574 (Medchemcomm, 2018).

The chains behind the UniProt entries cited, without tags or fusion partners.
UniProt P23219, whole entry: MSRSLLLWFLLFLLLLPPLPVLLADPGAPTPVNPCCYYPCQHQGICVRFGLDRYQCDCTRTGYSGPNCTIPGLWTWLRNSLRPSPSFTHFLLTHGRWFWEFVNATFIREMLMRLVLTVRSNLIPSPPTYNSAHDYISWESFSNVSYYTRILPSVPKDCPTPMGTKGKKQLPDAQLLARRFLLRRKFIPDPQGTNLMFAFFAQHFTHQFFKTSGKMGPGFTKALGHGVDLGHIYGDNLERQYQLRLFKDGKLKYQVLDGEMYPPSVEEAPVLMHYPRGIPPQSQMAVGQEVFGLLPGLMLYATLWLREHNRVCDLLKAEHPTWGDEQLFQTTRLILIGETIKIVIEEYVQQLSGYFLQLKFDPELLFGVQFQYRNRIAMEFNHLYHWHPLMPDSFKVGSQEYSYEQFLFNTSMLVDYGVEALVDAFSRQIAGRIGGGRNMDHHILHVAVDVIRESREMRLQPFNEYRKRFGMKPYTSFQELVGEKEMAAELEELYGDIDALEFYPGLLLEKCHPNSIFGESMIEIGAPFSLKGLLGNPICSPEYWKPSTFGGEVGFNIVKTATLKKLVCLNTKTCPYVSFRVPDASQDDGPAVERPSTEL

Molecular target: Prostaglandin G/H synthase 1 (Homo sapiens, UniProt P23219)

IC50: 150 µM
SMILES: Cc1onc(-c2ccccc2)c1-c1ccc(S(N)(=O)=O)cc1 [VALDECOXIB]
